The data set is described as follows: Stability of the product at room temperature (purity change by HPLC). The following applies: for HPLC purity: room temperature.

Turning to contezolid acefosamil [Product form 2], the HPLC purity by setting is: (time 0 month) 97.29%; (time 1 month) 94.27%; (time 2 months) 92.99%; (time 3 months) 91.27%; (time 9 months) 83.21%; (time 9 months, listed as product form 2) 83.21%.

As for contezolid acefosamil [Product form 3], the “Stability (decomposition)” value (room temperature for 24 hours) is listed as “substantially free of decomposition”. In addition, the HPLC purity (time 0 month) amounted to 97.54%; the HPLC purity (time 1 month) is 96.61%; the HPLC purity (time 2 months) is listed as 96.77%; the HPLC purity (time 3 months) is listed as 96.84%; the HPLC purity (time 9 months) is 95.81%.

(Values after patent US12180242B2, “Pharmaceutical crystal of contezolid acefosamil, preparation method therefor, and uses thereof” (dated 2024).)
